Results: EP4644396A1 (Visionpharma (Nantong) Co., Ltd, priority 2022, dated 2024)

Sequences of proteins named here, by UniProt entry; tags and fusion partners are left off. Residues count along the entry.
UniProt Q9NYK1, 27-1049 limits assumed: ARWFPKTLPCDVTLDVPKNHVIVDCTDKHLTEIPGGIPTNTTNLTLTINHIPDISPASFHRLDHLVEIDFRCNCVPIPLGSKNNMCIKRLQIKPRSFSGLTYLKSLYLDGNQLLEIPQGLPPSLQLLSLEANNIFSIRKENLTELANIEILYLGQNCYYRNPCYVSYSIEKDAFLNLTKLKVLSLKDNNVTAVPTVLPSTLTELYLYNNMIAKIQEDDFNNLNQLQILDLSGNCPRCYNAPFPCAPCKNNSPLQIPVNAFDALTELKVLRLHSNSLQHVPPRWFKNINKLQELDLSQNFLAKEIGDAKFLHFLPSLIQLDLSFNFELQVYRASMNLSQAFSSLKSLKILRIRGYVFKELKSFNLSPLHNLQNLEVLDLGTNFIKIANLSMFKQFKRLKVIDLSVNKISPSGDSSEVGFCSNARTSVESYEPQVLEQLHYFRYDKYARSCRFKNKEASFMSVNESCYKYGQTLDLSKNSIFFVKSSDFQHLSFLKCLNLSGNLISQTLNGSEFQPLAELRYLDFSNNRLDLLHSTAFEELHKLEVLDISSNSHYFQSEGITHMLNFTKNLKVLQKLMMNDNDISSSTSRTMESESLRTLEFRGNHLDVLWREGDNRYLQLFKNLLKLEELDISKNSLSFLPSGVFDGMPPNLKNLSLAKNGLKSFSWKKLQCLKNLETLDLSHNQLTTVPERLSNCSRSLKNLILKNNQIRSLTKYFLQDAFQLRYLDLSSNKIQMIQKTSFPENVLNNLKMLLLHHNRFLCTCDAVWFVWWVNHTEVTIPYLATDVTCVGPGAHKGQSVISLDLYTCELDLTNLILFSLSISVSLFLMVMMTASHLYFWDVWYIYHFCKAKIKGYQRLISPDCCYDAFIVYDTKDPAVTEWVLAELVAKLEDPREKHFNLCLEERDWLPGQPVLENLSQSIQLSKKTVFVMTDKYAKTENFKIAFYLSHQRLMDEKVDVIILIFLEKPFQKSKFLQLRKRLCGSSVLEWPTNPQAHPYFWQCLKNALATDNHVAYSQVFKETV
UniProt Q9NR97, 27-1041 limits assumed: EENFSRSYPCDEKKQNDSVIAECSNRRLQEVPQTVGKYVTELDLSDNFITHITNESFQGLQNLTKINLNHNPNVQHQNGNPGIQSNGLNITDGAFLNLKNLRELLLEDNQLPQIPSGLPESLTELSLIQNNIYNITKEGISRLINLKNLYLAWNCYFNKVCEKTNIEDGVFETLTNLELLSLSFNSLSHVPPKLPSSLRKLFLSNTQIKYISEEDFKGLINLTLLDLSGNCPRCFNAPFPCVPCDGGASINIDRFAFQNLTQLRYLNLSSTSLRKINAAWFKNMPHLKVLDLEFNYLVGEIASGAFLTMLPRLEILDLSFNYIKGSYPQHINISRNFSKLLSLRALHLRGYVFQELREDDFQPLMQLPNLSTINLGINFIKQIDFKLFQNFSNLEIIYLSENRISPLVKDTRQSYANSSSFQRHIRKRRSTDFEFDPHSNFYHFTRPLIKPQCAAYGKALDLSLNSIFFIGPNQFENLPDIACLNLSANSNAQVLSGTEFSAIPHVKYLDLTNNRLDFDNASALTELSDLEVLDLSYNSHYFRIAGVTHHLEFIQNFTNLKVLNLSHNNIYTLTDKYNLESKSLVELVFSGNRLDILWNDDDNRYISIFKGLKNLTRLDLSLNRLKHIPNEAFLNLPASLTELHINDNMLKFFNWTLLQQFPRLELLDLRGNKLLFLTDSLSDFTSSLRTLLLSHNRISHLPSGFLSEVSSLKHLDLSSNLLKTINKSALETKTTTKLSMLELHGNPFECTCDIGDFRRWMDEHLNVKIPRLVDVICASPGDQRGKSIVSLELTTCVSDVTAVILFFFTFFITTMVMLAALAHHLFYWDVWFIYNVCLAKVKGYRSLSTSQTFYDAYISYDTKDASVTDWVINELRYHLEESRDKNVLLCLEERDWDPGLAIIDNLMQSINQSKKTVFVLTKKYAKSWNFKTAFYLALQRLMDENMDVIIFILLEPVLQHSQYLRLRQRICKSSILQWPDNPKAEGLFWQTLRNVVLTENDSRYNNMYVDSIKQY

Tests used:
human TLR7 = human TLR7 (Homo sapiens, UniProt Q9NYK1); experiment: HEK-Blue hTLR7 SEAP reporter gene inhibition assay; conditions: read-out: HEK-Blue hTLR7 IC50; hTLR7 HEK-Blue cells, TLR7 ligand Gardiquimod 10 µM, 20 hours, SEAP by Quanti-blue; class symbols
Procedure: (§1) HEK-Blue cells with stable expression of human TLR7 or TLR8 were used in the evaluation of inhibitory activity of compounds in the present invention against TLR7 or TLR8, by using its ability to induce the SEAP reporting gene under the control of the fusion of IFN-β minimum promoters into five NF-κB and ap-1 binding sites, as follows: hTLR7 HEK-Blue cells (Invivogen, 80, 000 cells per well) or hTLR8 HEK-Blue cells (60, 000 cells per well) were added to a 96-well cell culture plate. A solution of the testing compounds were added to each well, with the final concentration of tested compounds in the medium ranged from 0.001 to 36 µM and the culture was incubated for 15 minutes. M5049 was used as positive controls in the testing.
(§2) Then a TLR7 ligand (Gardiquimod, purchased from MedChemExpress, with final concentration of ligand in cell culture medium kept at 10 µM) or a TLR8 ligand (purchased from MedChemExpress with final concentration in cell culture media at 10 µM) and the culture was incubated for 20 hours. According to the manufacturer's instructions, a HEK-Blue reagent Quanti-blue (Invivogen) was used to detect the SEAP levels in cell cultures. The half […] concentration or IC50 was calculated by using GraphPad Prism. The IC50 values were defined as A and B (Against hTLR7 EC50(µM): A < 0.05 µM, B > 0.05 µM; against hTLR8 EC 50(µM): A < = 0.1 µM, B > 0.1 µM; -, as untested). […]

human TLR8 = human TLR8 (Homo sapiens, UniProt Q9NR97); experiment: HEK-Blue hTLR8 SEAP reporter gene inhibition assay; conditions: read-out: HEK-Blue hTLR8 IC50; hTLR8 HEK-Blue cells, TLR8 ligand 10 µM, 20 hours, SEAP by Quanti-blue; class symbols
Procedure: as §1, §2

CC1Cc2c(nn3c2CN(c2ccc(C#N)n4ncc(F)c24)C[C@H]3C)C(C)N1 (single isomer, unassigned)
IC50 (human TLR7): < 50 nM
IC50 (human TLR8): > 100 nM
